According to patent US11666671B2, “Spatial mapping of kidney functions” (Northwestern University, priority 2018, dated 2023):

Assay: Renal histology (immunofluorescence) and renal tubular handling of the carriers (FIGS. 3, 4)
Settings: ^99mTc/HYNIC-labelled carriers

Duramycin
renal tubular handling / fate of the carrier: excreted through urination
